Reference: ChEMBL document CHEMBL1127086, “Syntheses and biological evaluations of 3'-deoxy-3'-C-branched-chain-substituted nucleosides” (1993)

How the values were obtained:
[1] = test system: Thymidine kinase (Human herpesvirus 2); experiment: Antiviral activity against thymidine kinase from Herpes simplex virus type-2 (333 Strain) infected HeLa (Bu-25-TK-) cells at 500 uM concentration
[2] = test system: Thymidine kinase (Human herpesvirus 1); experiment: Antiviral activity against thymidine kinase from Herpes simplex virus type-1 (KOS Strain) infected HeLa (Bu-25-TK-) cells at 500 uM concentration

inhibition [1]: 22%
inhibition [2]: 55.1%
SMILES: Cc1cn([C@@H]2O[C@H](CO)[C@@H](O)[C@@H]2O)c(=O)[nH]c1=O
